Usually Ki stands for the equilibrium dissociation constant of an inhibitor or competing ligand from its target.

Chains of the proteins cited; added tags and fusions are not shown. Residues count along the entry.
UniProt P03951, 388-625 limits assumed: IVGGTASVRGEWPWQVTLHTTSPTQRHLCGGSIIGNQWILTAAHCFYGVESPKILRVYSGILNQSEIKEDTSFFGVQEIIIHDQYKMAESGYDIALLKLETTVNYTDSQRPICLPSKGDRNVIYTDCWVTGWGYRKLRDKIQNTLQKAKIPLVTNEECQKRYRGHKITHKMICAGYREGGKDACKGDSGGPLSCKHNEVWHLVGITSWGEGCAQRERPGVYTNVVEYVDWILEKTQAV
UniProt P03951, 19-387 partner limits assumed: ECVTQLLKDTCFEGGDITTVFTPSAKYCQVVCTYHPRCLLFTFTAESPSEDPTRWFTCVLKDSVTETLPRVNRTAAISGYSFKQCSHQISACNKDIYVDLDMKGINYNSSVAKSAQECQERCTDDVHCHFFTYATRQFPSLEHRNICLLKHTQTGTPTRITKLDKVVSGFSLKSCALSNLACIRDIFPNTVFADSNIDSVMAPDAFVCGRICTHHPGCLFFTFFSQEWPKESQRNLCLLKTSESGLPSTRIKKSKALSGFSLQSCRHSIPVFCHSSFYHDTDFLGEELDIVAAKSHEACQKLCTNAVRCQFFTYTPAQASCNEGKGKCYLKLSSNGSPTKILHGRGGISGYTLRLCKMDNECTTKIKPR

Read-outs that look alike come from different tables or passages of the source.

In the assay the target is purified human Factor XIa (Homo sapiens (Human), UniProt P03951). The experiment in a line: Factor XIa chromogenic substrate (S-2366) inhibition assay. It counts as biochemical.
[1] abbreviates: read-out: Factor XIa Ki, substrate S-2366, activity ranges, Table A.
[2] abbreviates: read-out: Factor XIa Ki, substrate S-2366, Table 1.

As to `COC(=O)Nc1ccc(NC(=O)C2c3cccc(N4CCNCC4)c3CCN2C(=O)/C=C/c2c(-n3cnnn3)ccc(Cl)c2F)cc1` (single isomer, unassigned), the inhibition constant Ki under setting [1] lay in the range of 5 to 10 nM.
Consider `O=C(O)c1ccc(NC(=O)[C@H]2c3cccc(N4CCNCC4)c3CCN2C(=O)/C=C/c2cc(Cl)c(F)cc2-n2cnnn2)cc1`, for which the Ki under setting [2] turned out to be 2290 nM.
Turning to `O=C(O)c1ccc(NC(=O)C2c3cccc(N4C[C@@H]5C[C@H]4CN5)c3CCN2C(=O)/C=C/c2c(-n3cnnn3)ccc(Cl)c2F)cc1` (some centres unmarked), under setting [1], the inhibition constant (Ki) is under 5 nM.
Consider `O=C(O)c1ccc(NC(=O)[C@@H]2c3cccc(N4CCNCC4)c3CCN2C(=O)/C=C/c2cc(Cl)c(F)cc2-n2cnnn2)cc1`, for which the Ki under setting [1] lay in the range of 5 to 10 nM.
In the case of `COC(=O)Nc1ccc(NC(=O)C2c3cccc(N4CCN(C)CC4)c3CCN2C(=O)/C=C/c2cc(Cl)ccc2-n2cnnn2)cc1` (centres unmarked), the inhibition constant (Ki) under setting [1] is 5 to 10 nM.
Same read-out and setting: in the case of `CCOC(=O)c1ccc(NC(=O)[C@@H]2c3cccc(N4CCC(N5CCCC5=O)CC4)c3CCN2C(=O)/C=C/c2c(-n3cnnn3)ccc(Cl)c2F)cc1` it was under 5 nM; in that of `O=C(Nc1ccc2cn[nH]c2c1)[C@@H]1c2cccc(N3CCNCC3)c2CCN1C(=O)/C=C/c1cc(Cl)c(F)cc1-n1cnnn1`, under 5 nM.
`O=C(Nc1ccc2cn[nH]c2c1)[C@H]1c2cccc(N3CCNCC3)c2CCN1C(=O)/C=C/c1cc(Cl)c(F)cc1-n1cnnn1`: under setting [2], the inhibition constant Ki was determined as 2440 nM.

These data come from patent US10208021B2.
